In patent EP4563146A1 (IRBM S.P.A., priority 2023, dated 2025):
Where two headings read alike, the source gives them in different places.

Experiments:
[1] = biological target: DEN2V NS2B-G4SG4-NS3 serine protease (Dengue virus type 2, UniProt Q91H74); assay: DEN2V protease inhibition assay
[2] = biological target: DEN1V NS2B-G4SG4NS3 serine protease (Dengue virus type 1, UniProt P17763); assay: DEN1V protease inhibition assay
[3] = biological target: DEN3V NS2B-G4SG4NS3 serine protease (Dengue virus type 3, UniProt Q6YMS4); assay: DEN3V protease inhibition assay
[4] = biological target: DEN4V NS2B-G4SG4NS3 serine protease (Dengue virus type 4, UniProt P09866); assay: DEN4V protease inhibition assay
[5] = read-out: Dengue 2 - NS3 protease
[6] = read-out: Dengue 1 - NS3 protease
[7] = read-out: Dengue 3 - NS3 protease
[8] = read-out: Dengue 4 - NS3 protease

SMILES: O=C([N-]c1c[n+](C[C@H]2CC[C@@H](CNCC(F)(F)F)CC2)no1)Nc1cc(N2CCC(c3ccccc3)C2=O)cc(C(F)(F)F)c1 (stereo partly shown) [Example 139, ((3-(2-Oxo-3-phenylpyrrolidin-1-yl)-5-(trifluoromethyl)phenyl)carbamoyl)(3-(((1s,4s)-4-(((2,2,2-trifluoroethyl)amino)methyl)cyclohexyl)-methyl)-1,2,3-oxadiazol-3-ium-5-yl)amide]
- IC50 [1]: < 0.1 µM
- IC50 [2]: > 20 µM
- IC50 [3]: 0.1 to 1 µM
- IC50 [4]: 1 to 20 µM

SMILES: CN(C)C[C@H]1CC[C@H]([n+]2cc([N-]C(=O)Nc3cc(NC(=O)Cc4ccccc4)cc(C(F)(F)F)c3)on2)CC1 [Example 147, (3-((1R,4R)-4-((Dimethylamino)methyl)-cyclohexyl)-1,2,3-oxadiazol-3-ium-5-yl)((3-(2-phenylacetamido)-5-(trifluoromethyl)phenyl)-carbamoyl)amide]
- IC50 ([1]; read-out: Dengue 2 - NS3 protease, Table 5, letter codes for IC50): < 0.1 µM
- IC50 ([2]; read-out: Dengue 1 - NS3 protease, Table 5, letter codes for IC50): 1 to 20 µM
- IC50 ([3]; read-out: Dengue 3 - NS3 protease, Table 5, letter codes for IC50): 0.1 to 1 µM
- IC50 ([4]; read-out: Dengue 4 - NS3 protease, Table 5, letter codes for IC50): 0.1 to 1 µM

SMILES: CN(C)C[C@H]1CC[C@H]([n+]2cc([N-]C(=O)Nc3cc(NC(=O)Cc4ccccc4)cc(C(F)(F)F)c3)on2)CC1 [Example 94, (3-((1R,4R)-4-((Dimethylamino)methyl)-cyclohexyl)-1,2,3-oxadiazol-3-ium-5-yl)((3-(2-phenylacetamido)-5-(trifluoromethyl)phenyl)-carbamoyl)amide]
- IC50 [1, 5]: < 0.1 µM
- IC50 [2, 6]: 1 to 20 µM
- IC50 [3, 7]: 0.1 to 1 µM
- IC50 [4, 8]: 0.1 to 1 µM

SMILES: O=C([N-]c1c[n+](C[C@H]2CC[C@H](NCC(F)(F)F)CC2)no1)Nc1cc(N2CC[C@H](c3ccccc3)C2=O)cc(C(F)(F)F)c1 [Example 144, ((3-((R)-2-Oxo-3-phenylpyrrolidin-1-yl)-5-(trifluoromethyl)phenyl)carbamoyl)(3-(((1r,4r)-4-((2,2,2-trifluoroethyl)amino)cyclohexyl)-methyl)-1,2,3-oxadiazol-3-ium-5-yl)amide]
- IC50 [1]: < 0.1 µM
- IC50 [2]: > 20 µM
- IC50 [3]: 0.1 to 1 µM
- IC50 [4]: 0.1 to 1 µM

SMILES: CN1CCC(C[n+]2cc([N-]C(=O)Nc3cc(NC(=O)Cc4ccccc4)cc(C(F)(F)F)c3)on2)CC1 [Example 106, (3-((1-Methylpiperidin-4-yl)methyl)-1,2,3-oxadiazol-3-ium-5-yl)((3-(2-phenylacetamido)-5-(trifluoromethyl)phenyl)carbamoyl)amide]
- IC50 [1]: < 0.1 µM
- IC50 [2]: 1 to 20 µM
- IC50 [3]: 0.1 to 1 µM
- IC50 [4]: 1 to 20 µM

SMILES: NC1C2COCC1CC([n+]1cc([N-]C(=O)Nc3cc(NC(=O)Cc4ccccc4)cc(C(F)(F)F)c3)on1)C2 (stereo not shown) [Example 112, (3-(9-Amino-3-oxabicyclo[3.3.1]nonan-7-yl)-1,2,3-oxadiazol-3-ium-5-yl)((3-(2-phenylacetamido)-5-(trifluoromethyl)phenyl)carbamoyl)amide]
- IC50 [1]: < 0.1 µM
- IC50 [2]: 1 to 20 µM
- IC50 [3]: 0.1 to 1 µM
- IC50 [4]: 1 to 20 µM

SMILES: O=C([N-]c1c[n+]([C@H]2CC[C@@H](CNCC(F)(F)F)CC2)no1)Nc1cc(N2CCC(c3ccccc3)C2=O)cc(C(F)(F)F)c1 (stereo partly drawn) [Example 135, ((3-(2-Oxo-3-phenylpyrrolidin-1-yl)-5-(trifluoromethyl)phenyl)carbamoyl)(3-((1S,4S)-4-(((2,2,2-trifluoroethyl)amino)methyl)-cyclohexyl)-1,2,3-oxadiazol-3-ium-5-yl)amide]
- IC50 [1]: 0.1 to 1 µM
- IC50 [2]: > 20 µM
- IC50 [3]: 1 to 20 µM
- IC50 [4]: 1 to 20 µM

SMILES: COc1ncc(-c2ccc(C[n+]3cc([N-]C(=O)Nc4cc(NC(=O)Cc5ccccc5)cc(C(F)(F)F)c4)on3)cc2)c(C)n1 [Example 1, (3-(4-(2-Methoxy-4-methylpyrimidin-5-yl)benzyl)-1,2,3-oxadiazol-3-ium-5-yl)((3-(2-phenylacetamido)-5-(trifluoromethyl)phenyl)carbamoyl)amide]
- IC50 [1]: < 0.1 µM
- IC50 [2]: 1 to 20 µM
- IC50 [3]: < 0.1 µM
- IC50 [4]: < 0.1 µM

SMILES: CN1CCCC(C[n+]2cc([N-]C(=O)Nc3cc(NC(=O)Cc4ccccc4)cc(C(F)(F)F)c3)on2)C1 (stereo not shown) [Example 117, (3-((1-Methylpiperidin-3-yl)methyl)-1,2,3-oxadiazol-3-ium-5-yl)((3-(2-phenylacetamido)-5-(trifluoromethyl)phenyl)carbamoyl)amide]
- IC50 [1]: < 0.1 µM
- IC50 [2]: 1 to 20 µM
- IC50 [3]: 0.1 to 1 µM
- IC50 [4]: 1 to 20 µM

SMILES: NCC12CC(C[n+]3cc([N-]C(=O)Nc4cc(NC(=O)Cc5ccccc5)cc(C(F)(F)F)c4)on3)(C1)C2 [Example 103]
- IC50 [1]: < 0.1 µM
- IC50 [2]: > 20 µM
- IC50 [3]: 1 to 20 µM
- IC50 [4]: 1 to 20 µM

SMILES: NC[C@H]1CC[C@@H]([n+]2cc([N-]C(=O)Nc3cc(N4CCC(c5ccccc5)C4=O)cc(C(F)(F)F)c3)on2)CC1 (stereo partly drawn) [Example 119, (3-((1S,4S)-4-(Aminomethyl)cyclohexyl)-1,2,3-oxadiazol-3-ium-5-yl)((3-(2-oxo-3-phenylpyrrolidin-1-yl)-5-(trifluoromethyl)phenyl)-carbamoyl)amide]
- IC50 [1]: < 0.1 µM
- IC50 [2]: 1 to 20 µM
- IC50 [3]: 0.1 to 1 µM
- IC50 [4]: 1 to 20 µM

SMILES: N[C@H]1C[C@H]([n+]2cc([N-]C(=O)Nc3cc(NC(=O)Cc4ccccc4)cc(C(F)(F)F)c3)on2)C1 [Example 26, (3-((1R,3R)-3-Aminocyclobutyl)-1,2,3-oxadiazol-3-ium-5-yl)((3-(2-phenylacetamido)-5-(trifluoromethyl)phenyl)carbamoyl)amide]
- IC50 [1]: 0.1 to 1 µM
- IC50 [2]: > 20 µM
- IC50 [3]: 1 to 20 µM
- IC50 [4]: 1 to 20 µM

SMILES: O=C(Cc1ccccc1)Nc1cc(NC(=O)[N-]c2c[n+](Cc3ccc(-c4cccc5c4CNC5)cn3)no2)cc(C(F)(F)F)c1 [Example 14, (3-((5-(Isoindolin-4-yl)pyridin-2-yl)methyl)-1,2,3-oxadiazol-3-ium-5-yl)((3-(2-phenylacetamido)-5-(trifluoromethyl)phenyl)carbamoyl)amide]
- IC50 [1]: < 0.1 µM
- IC50 [2]: 1 to 20 µM
- IC50 [3]: < 0.1 µM
- IC50 [4]: < 0.1 µM

SMILES: COc1ncc(-c2ccc(C[n+]3cc([N-]C(=O)Nc4cc(NC(=O)CC5CCCCC5)cc(C(F)(F)F)c4)on3)cc2)c(C)n1 [Example 8]
- IC50 [1, 5]: < 0.1 µM
- IC50 [2, 6]: > 20 µM
- IC50 [3, 7]: 0.1 to 1 µM
- IC50 [4, 8]: 0.1 to 1 µM

SMILES: CN(C)[C@H]1C[C@H]([n+]2cc([N-]C(=O)Nc3cc(NC(=O)Cc4ccccc4)cc(C(F)(F)F)c3)on2)C1 [Example 55, (3-((1R3R)-3-(Dimethylamino)cyclobutyl)-1,2,3-oxadiazol-3-ium-5-yl)((3-(2-phenyl-acetamido)-5-(trifluoromethyl)phenyl)-carbamoyl)amide]
- IC50 [1]: 0.1 to 1 µM
- IC50 [2]: > 20 µM
- IC50 [3]: 1 to 20 µM
- IC50 [4]: > 20 µM

SMILES: COc1ncc(-c2ccc(C[n+]3cc([N-]C(=O)Nc4cc(NC(=O)Cc5ccccc5)cc(C(F)(F)F)c4)on3)nc2)c(C)n1 [Example 13, (3-((5-(2-Methoxy-4-methylpyrimidin-5-yl)pyridin-2-yl)methyl)-1,2,3-oxadiazol-3-ium-5-yl)((3-(2-phenylacetamido)-5-(trifluoromethyl)phenyl)carbamoyl)amide]
- IC50 [1]: < 0.1 µM
- IC50 [2]: 0.1 to 1 µM
- IC50 [3]: < 0.1 µM
- IC50 [4]: < 0.1 µM

SMILES: Cc1nc(N)ncc1-c1ccc(C[n+]2cc([N-]C(=O)Nc3cc(NC(=O)Cc4ccccc4)cc(C(F)(F)F)c3)on2)nc1 [Example 25, (3-((5-(2-Amino-4-methylpyrimidin-5-yl)pyridin-2-yl)methyl)-1,2,3-oxadiazol-3-ium-5-yl)((3-(2-phenylacetamido)-5-(trifluoromethyl)phenyl)carbamoyl)amide]
- IC50 [1]: < 0.1 µM
- IC50 [2]: 0.1 to 1 µM
- IC50 [3]: 0.1 to 1 µM
- IC50 [4]: 1 to 20 µM

SMILES: O=C(Cc1ccccc1)Nc1cc(NC(=O)[N-]c2c[n+]([C@H]3CC[C@@H](CN4C(=O)c5ccccc5C4=O)CC3)no2)cc(C(F)(F)F)c1 [Example 60, (3-((1S,4S)-4-((1,3-Dioxoisoindolin-2-yl)methyl)cyclohexyl)-1,2,3-oxadiazol-3-ium-5-yl)((3-(2-phenylacetamido)-5-(trifluoromethyl)-phenyl)carbamoyl)amide]
- IC50 [1]: 0.1 to 1 µM
- IC50 [2]: > 20 µM
- IC50 [3]: 1 to 20 µM
- IC50 [4]: > 20 µM

SMILES: O=C(Cc1ccccc1)Nc1cc(NC(=O)[N-]c2c[n+](Cc3ccccn3)no2)cc(C2CC2)c1 [Example 89, ((3-Cyclopropyl-5-(2-phenylacetamido)phenyl)carbamoyl)(3-(pyridin-2-ylmethyl)-1,2,3-oxadiazol-3-ium-5-yl)amide]
- IC50 [1]: < 0.1 µM
- IC50 [2]: 1 to 20 µM
- IC50 [3]: 0.1 to 1 µM
- IC50 [4]: 1 to 20 µM

SMILES: COc1ncc(-c2ccc(C[n+]3cc([N-]C(=O)Nc4cc(NC(=O)CCc5ccccc5)cc(C(F)(F)F)c4)on3)cc2)c(C)n1 [Example 9, (3-(4-(2-Methoxy-4-methylpyrimidin-5-yl)benzyl)-1,2,3-oxadiazol-3-ium-5-yl)((3-(3-phenylpropanamido)-5-(trifluoromethyl)phenyl)carbamoyl)amide]
- IC50 [1]: < 0.1 µM
- IC50 [2]: 0.1 to 1 µM
- IC50 [3]: 0.1 to 1 µM
- IC50 [4]: 0.1 to 1 µM

SMILES: NC[C@H]1CC[C@H]([n+]2cc([N-]C(=O)Nc3cc(NC(=O)Cc4ccccc4)cc(C(F)(F)F)c3)on2)CC1 [Example 93, (3-((1R,4R)-4-(Aminomethyl)cyclohexyl)-1,2,3-oxadiazol-3-ium-5-yl)((3-(2-phenyl-acetamido)-5-(trifluoromethyl)phenyl)-carbamoyl)amide]
- IC50 [1]: < 0.1 µM
- IC50 [2]: 1 to 20 µM
- IC50 [3]: 0.1 to 1 µM
- IC50 [4]: 0.1 to 1 µM

SMILES: CN1CCCCC1C[n+]1cc([N-]C(=O)Nc2cc(NC(=O)Cc3ccccc3)cc(C3CC3)c2)on1 (stereo not shown) [Example 127]
- IC50 [1, 5]: < 0.1 µM
- IC50 [2, 6]: 1 to 20 µM
- IC50 [3, 7]: 0.1 to 1 µM
- IC50 [4, 8]: 1 to 20 µM
